# Experimental data taken from US11077078B2, “Compositions and methods for the treatment of cancer” (KoDiscovery, LLC, priority 2006, dated 2021).
# Test system: Hepatocellular carcinoma cells
# Assay: Rat hepatocellular carcinoma study: cancer cell viability vs μM of anti-cancer agents (FIG. 3)
# Conditions: 23 hour period; cell viability 5% vs 55%
smiles,measurement,value
"O=C(O)C(=O)CBr [3-Bromopyruvate, 3-bromopyruvate]","efficiency as compared to the closest anti-cancer agent, methotrexate, in terms of cell viability",10 times
